Among the data in PubChem BioAssay AID588850 (Sanford-Burnham Center for Chemical Genomics, 2011) are inhibition values, retold here.

This is a selection; strong and weak results do not stand in their true shares. Active and inactive are the calls of the source.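 The calls were made as follows: active = at least 50% inhibition at 5 µM, scaled per plate between neutral and stimulator controls; inactive = the rest.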

The experiment in a line: inhibitors of PAF-induced NF-kB signaling, primary screen, cell-based, GFP fluorescence, uHTS (AID 588850).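 Also: PAF is a Pseudomonas aeruginosa culture filtrate used as stimulus; plate controls were PAF-stimulated DMSO wells for no effect and unstimulated DMSO wells for full effect.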 The conditions noted are these: KKLEB NF-kB-GFP reporter, GFP fluorescence overnight, at 5 µM, stronger effect = higher value.
In general, inhibition refers to the drop in the measured response relative to a control, in per cent. Consider `Nc1ccc([As](=O)(O)c2ccc(N)cc2)cc1`, for which the inhibition is inactive: 12.9%.

Turning to `CCN(/C(=N/P(=O)(N1CCOCC1)N1CCOCC1)N1CCOCC1)c1ccc(OC)cc1`, the inhibition is inactive: 2.4%. With `O=C(Nc1cc([As](=O)(O)O)ccc1O)c1ccccc1`, the inhibition was inactive: -16.3%. In the case of `O=P1(N(CCCl)CCCl)OCCCS1` (centres undefined) it was inactive: -3.1%; in that of `COC(=O)C1(C)COP(=O)(Nc2ccccc2)OC1` (centres undefined), inactive: 7.1%; in that of `O=[N+]([O-])c1cccc(NC2=NCC(CBr)S2)c1` (centres undefined), inactive: 11.9%. As for `O=C(O)CNc1ccc([As](=O)(O)O)cc1`, the inhibition is inactive: -18.8%. The same measure for `CC(C)(C)C(=O)NC(Sc1ccncn1)C(Cl)(Cl)Cl` (centres undefined): inactive: -8.1%; for `O=[N+]([O-])c1ncn(CCn2ncnc2[N+](=O)[O-])n1`: inactive: -0.6%; for `Cc1ccc(NP(=O)(Oc2ccccc2F)Oc2ccccc2F)nc1`: inactive: 7%. As for `CN(C(=O)Cc1ccc(Cl)c(Cl)c1)[C@H]1CCCC[C@@H]1N1CCCC1`, the inhibition is inactive: 6.2%. The same measure for `Cc1cc(SC(NC(=O)c2ccc(F)cc2)C(Cl)(Cl)Cl)ncn1` (centres undefined): inactive: -0.5%; for `CCOP(=O)(Nc1ccccc1)OCC`: inactive: -4.1%. On to `CCCC1OP(N)(=O)OCC1CC` (centres undefined), for which the inhibition is inactive: -6.9%. The same measure for `CC(=O)Nc1ccc([As](=O)(O)O)cc1`: inactive: -18.7%; for `O=C(O)c1ccccc1[As](=O)(O)O`: inactive: 11.9%; for `O=P(Nc1nc2ccc(Cl)cc2s1)(c1ccccc1)c1ccccc1`: inactive: -19.3%. The same measure for `CN(C)P(=O)(N(C)C)n1c(Nc2ccccc2)nnc1-c1ccccc1`: inactive: -6.9%; for `CCN(N=Nc1nonc1N)c1nonc1N`: inactive: 4.4%; for `Nc1cccc2ccc([As](=O)(O)O)cc12`: inactive: 11.1%. In the case of `Cc1ccc(OP(=O)(Nc2nccs2)Oc2ccc(C)cc2)cc1` it was inactive: 9.1%. As for `COc1ccccc1OP(=O)(Nc1ccc(C)cn1)Oc1ccccc1OC`, the inhibition was inactive: 10.4%. Consider `CN1CCCC(OC(=O)C(c2ccccc2)c2ccccc2)C1` (centres undefined), for which the inhibition is inactive: 6.4%.

Regarding `Clc1ccc(Cl)c(NC2=NCC(CBr)S2)c1` (centres undefined), the inhibition is inactive: 11.6%.

As to `NC(=O)c1cc([N+](=O)[O-])cc([N+](=O)[O-])c1N`, the inhibition is inactive: -26.5%. Take `Cc1ccc(N/C(=N/P(=O)(N2CCOCC2)N2CCOCC2)N2CCOCC2)cc1`: the inhibition is inactive: -2.2%. Turning to `CN(C(=O)Cc1ccc(Cl)c(Cl)c1)[C@H]1CCCC[C@H]1N1CCCC1`, the inhibition was inactive: 1.2%. Regarding `O=[N+]([O-])C1C(O)C(O)C([N+](=O)[O-])C(O)C1O` (centres undefined), the inhibition was inactive: -30.7%. On to `Nc1cc(N)c2nonc2c1[N+](=O)[O-]`, for which the inhibition was inactive: -17.1%. As to `CC(C)CC(=O)NC(Sc1ccc(Cl)cc1)C(Cl)(Cl)Cl` (centres undefined), the inhibition is inactive: -1%. On to `O=C(NC(Sc1ccncn1)C(Cl)(Cl)Cl)c1ccccc1` (centres undefined), for which the inhibition was inactive: 5.3%. Take `Oc1ccccc1CNc1ccccn1`: the inhibition was inactive: -6.3%. The same measure for `CCc1cc(O)c([N+](=O)[O-])c(C)c1[N+](=O)[O-]`: inactive: 3.7%; for `CC(C)(C)C(=O)NC(Sc1ccccc1)C(Cl)(Cl)Cl` (centres undefined): inactive: 12.1%; for `CCOc1ccc(C2=NCC(CBr)S2)cc1` (centres undefined): inactive: 6.8%. The same measure for `O=P1(Nc2nc3ccc(Cl)cc3s2)COc2ccccc2O1` (centres undefined): inactive: 15.6%; for `CC(=O)Nc1ccc(Oc2c([N+](=O)[O-])cc([N+](=O)[O-])cc2[N+](=O)[O-])cc1`: inactive: -0.5%; for `CC(=O)Nc1ccc([As](=O)(O)O)c(O)c1`: inactive: 6.3%.

Take `COC(=O)C1(C)COP(=O)(NCc2ccccc2)OC1` (centres undefined): the inhibition is inactive: -4%. In the case of `CC(=O)c1ccc(N2CC2c2ccncc2)cc1` (centres undefined) it was inactive: -19.7%. With `N#C/C(=C\c1ccc(N(CCBr)CCBr)cc1)C(N)=O`, the inhibition was inactive: 4.5%. As for `C[C@H]1OP(=O)(Oc2ccccc2)C[C@@H]2O[C@@H]21` (some centres undefined), the inhibition is inactive: 6.6%. Take `C[C@@H]1C=CCP(=O)(Oc2ccccc2)O1` (some centres undefined): the inhibition was inactive: 0.9%. The same measure for `Cc1ccccc1CN(C)C(=O)COC(=O)C(O)(c1ccccc1)c1ccccc1`: inactive: 8.3%; for `O=P1(N(CCCl)CCCl)OCCC2CCCCN21` (centres undefined): inactive: -1.7%; for `CCNC(=S)/N=C(\N)N[N+](=O)[O-]`: inactive: -16.3%. The same measure for `O=C(NC1CCS(=O)(=O)C1)NP(=S)(Oc1ccccc1)Oc1ccccc1` (centres undefined): inactive: 3.2%; for `Cc1ccc(NP(=O)(Oc2cccc(C)c2)Oc2cccc(C)c2)nc1`: inactive: 2.7%. With `c1ccc(-c2nn[nH]n2)c(-c2nn[nH]n2)c1`, the inhibition is inactive: 6.8%. As to `O=c1c2cc([N+](=O)[O-])ccc2[nH]c2c([N+](=O)[O-])cc([N+](=O)[O-])cc12`, the inhibition was active: 97%.

`CN(C)C(=O)Oc1noc2ccccc12`: the inhibition is inactive: -0.2%. The same measure for `CC(NC(=O)COC(=O)C(O)(c1ccccc1)c1ccccc1)c1ccccc1` (centres undefined): inactive: 5.7%.

Take `Cc1ccccc1OP(=O)(Nc1ccccn1)Oc1ccccc1C`: the inhibition was inactive: -12.8%. In the case of `Cc1ccc(OP(=O)(Nc2ccccn2)Oc2ccc(C)cc2)cc1` it was inactive: -14.3%; in that of `CC(=O)NC(SC(=S)N(CC(C)C)CC(C)C)C(Cl)(Cl)Cl` (centres undefined), inactive: 7.6%. For the molecule `COC(=O)c1cc2c(s1)N=C(c1ccccc1)N(C)P2(=O)N1CCOCC1` (centres undefined), the inhibition is inactive: -5.7%. `CCC(=O)N1C2C3N(C(=O)CC)C1C1N(C(=O)CC)C(C(N1C(=O)CC)N3C(=O)CC)N2C(=O)CC`: the inhibition was inactive: 10.3%. Consider `O=C(OC1CN2CCC1CC2)c1ccccc1` (centres undefined), for which the inhibition is inactive: -1.7%. The same measure for `C[C@H]1OP(=O)(Oc2ccccc2)[C@H](O)[C@H](O)[C@H]1N=[N+]=[N-]` (some centres undefined): inactive: -2%; for `O=P(Nc1nc2ccccc2s1)(c1ccccc1)c1ccccc1`: inactive: -2.1%.

Take `COc1ccc(N)c([N+](=O)[O-])c1[N+](=O)[O-]`: the inhibition was inactive: 12.1%. On to `Nc1ccc(CCCCOc2ccccc2)cc1`, for which the inhibition was inactive: 5.4%. In the case of `O=P(Nc1ccccn1)(c1ccc(Br)cc1)c1ccc(Br)cc1` it was inactive: -12.9%; in that of `CN(C)C1(CNC(=O)c2ccc(Cl)c(S(N)(=O)=O)c2)CCCCC1`, inactive: 6.1%. Turning to `C(Cc1nn[nH]n1)Cc1nn[nH]n1`, the inhibition was inactive: 6%.

Consider `Nc1ccc([As](=O)(O)c2ccc([N+](=O)[O-])cc2)cc1`, for which the inhibition is inactive: 12.6%. The same measure for `O=C(OC1CN2CCC1CC2)c1cccc(Cl)c1` (centres undefined): inactive: 0%. Regarding `O=[N+]([O-])c1ccc(O)c(/C=N/Nc2ccc([N+](=O)[O-])cc2[N+](=O)[O-])c1`, the inhibition was active: 58.8%. The same measure for `O=[N+]([O-])c1ncn(CCn2cnc([N+](=O)[O-])n2)n1`: inactive: -2.8%; for `CC(=O)NC(SC(=S)N(C)C)C(Cl)(Cl)Cl` (centres undefined): inactive: 7.2%. The same measure for `O=[As](O)(c1ccccc1)c1ccc(O)cc1`: inactive: 5.5%; for `c1nnnn1CCn1cnnn1`: inactive: 0.2%; for `CC(C)C(=O)NC(Sc1ccccc1)C(Cl)(Cl)Cl` (centres undefined): inactive: 3.8%. `O=P(Nc1nccs1)(c1ccccc1)c1ccccc1`: the inhibition is inactive: 8%.
